Amino acid sequences for entries named in this document (tags omitted). Chains listed by the source or under a name are the forms on record and can include a tag or linker. Residues count along the entry.
UniProt P05771, 1-621 with tags or gaps limits assumed: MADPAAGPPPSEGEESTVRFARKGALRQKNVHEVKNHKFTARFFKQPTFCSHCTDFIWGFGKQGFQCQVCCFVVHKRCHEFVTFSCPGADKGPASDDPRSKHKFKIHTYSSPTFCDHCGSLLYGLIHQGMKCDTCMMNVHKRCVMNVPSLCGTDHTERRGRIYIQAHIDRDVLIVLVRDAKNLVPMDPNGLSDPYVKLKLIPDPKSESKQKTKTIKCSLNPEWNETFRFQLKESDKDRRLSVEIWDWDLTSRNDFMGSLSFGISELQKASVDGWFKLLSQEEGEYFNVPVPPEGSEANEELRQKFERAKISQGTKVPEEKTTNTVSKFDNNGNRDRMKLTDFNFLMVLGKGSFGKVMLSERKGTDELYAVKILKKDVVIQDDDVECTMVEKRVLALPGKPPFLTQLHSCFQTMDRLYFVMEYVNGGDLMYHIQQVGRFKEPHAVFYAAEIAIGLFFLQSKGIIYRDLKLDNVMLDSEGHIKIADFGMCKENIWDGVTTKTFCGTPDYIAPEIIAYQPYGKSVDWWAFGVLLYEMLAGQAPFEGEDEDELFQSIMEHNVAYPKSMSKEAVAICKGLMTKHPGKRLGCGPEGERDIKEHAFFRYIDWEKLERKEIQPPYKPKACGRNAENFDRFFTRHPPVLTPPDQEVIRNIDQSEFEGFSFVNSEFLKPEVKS

In patent publication US8999981B2, “3-amido-pyrrolo[3,4-C]pyrazole-5(1H, 4H,6H) carbaldehyde derivatives” (Pfizer Inc., priority 2007, dated 2015):

Target: Protein Kinase C beta 2 (PKCβII) (Homo sapiens (Human), UniProt P05771)
Assay: PKCβII coupled PK/LDH spectrophotometric kinase assay
Type: biochemical
Details: read-out: PKCb Ki
[1] = apparent Ki, ATP-competitive model (Morrison equation), 0.1 mM ATP, 30° C.

SMILES	Ki [1]	Ki
COc1cccc(C(=O)Nc2n[nH]c3c2CN(C(=O)N2C[C@@H](C)N(CC4CCOCC4)C[C@@H]2C)C3(C)C)n1	46.7 nM	
Cc1ccnc(C(=O)Nc2n[nH]c3c2CN(C(=O)N2C[C@@H](C)N(CC4CCOCC4)C[C@@H]2C)C3(C)C)c1	21.7 nM	
C[C@@H]1CN(C(=O)N2Cc3c(NC(=O)c4cccc(F)c4)n[nH]c3C2(C)C)[C@@H](C)CN1CC1CCOCC1	< 10 nM	
C[C@@H]1CN(C(=O)N2Cc3c(NC(=O)c4ccc(F)cc4F)n[nH]c3C2(C)C)[C@@H](C)CN1CC1CC1 (relative stereo)	68.9 nM	
C[C@@H]1CN(C(=O)N2Cc3c(NC(=O)c4ccc(F)cc4)n[nH]c3C2(C)C)[C@@H](C)CN1CC1CCOCC1	11.2 nM	
C[C@H](CO)CN1C[C@H](C)N(C(=O)N2Cc3c(NC(=O)c4ccccn4)n[nH]c3C2(C)C)C[C@H]1C		50.4 nM
C[C@@H]1CN(C(=O)N2Cc3c(NC(=O)c4ccccn4)n[nH]c3C2(C)C)[C@@H](C)CN1CC1CC1 (relative stereo)	19.1 nM	
Cc1cccc(C(=O)Nc2n[nH]c3c2CN(C(=O)N2C[C@@H](C)N(CC4CCOCC4)C[C@@H]2C)C3(C)C)n1	15 nM	
COCCCN1C[C@H](C)N(C(=O)N2Cc3c(NC(=O)c4ccccn4)n[nH]c3C2(C)C)C[C@@H]1C	143 nM	
COc1ccc(C(=O)Nc2n[nH]c3c2CN(C(=O)N2C[C@@H](C)N(CC4CCOCC4)C[C@@H]2C)C3(C)C)nc1	< 10 nM	
C[C@@H]1CN(C(=O)N2Cc3c(NC(=O)c4cncn4C)n[nH]c3C2(C)C)[C@@H](C)CN1CC1CCOCC1	47.9 nM	
Cc1ccc(C(=O)Nc2n[nH]c3c2CN(C(=O)N2C[C@@H](C)N(CC4CCOCC4)C[C@@H]2C)C3(C)C)nc1		26.4 nM
CCCN1C[C@H](C)N(C(=O)N2Cc3c(NC(=O)c4ccccn4)n[nH]c3C2(C)C)C[C@H]1C		14.6 nM
C[C@@H]1CN(C(=O)N2Cc3c(NC(=O)c4ccc(F)cc4F)n[nH]c3C2(C)C)[C@@H](C)CN1CC1CCCC1 (relative stereo)	81.3 nM	
C[C@@H]1CN(C(=O)N2Cc3c(NC(=O)c4ccc(F)cn4)n[nH]c3C2(C)C)[C@@H](C)CN1CC1CCOCC1	12.8 nM	
C[C@@H]1CN(C(=O)N2Cc3c(NC(=O)c4ccccn4)n[nH]c3C2(C)C)[C@@H](C)CN1CC1CC1	13.3 nM	
CCc1nc(C(=O)Nc2n[nH]c3c2CN(C(=O)N2C[C@@H](C)N(CC4CCOCC4)C[C@@H]2C)C3(C)C)co1	14.9 nM	
CC1(C)c2[nH]nc(NC(=O)c3ccccc3F)c2CN1C(=O)N1C[C@@H]2CCCN2C[C@@H]1Cc1ccccc1	53.2 nM	
Cc1cccc(C(=O)Nc2n[nH]c3c2CN(C(=O)N2C[C@@H](C)N(CC4CCOCC4)C[C@@H]2C)C3(C)C)c1	< 10 nM	
Cc1nc(C(=O)Nc2n[nH]c3c2CN(C(=O)N2C[C@@H](C)N(CC4CCOCC4)C[C@@H]2C)C3(C)C)cs1	12.8 nM	
C[C@@H]1CN(C(=O)N2Cc3c(NC(=O)c4ccc(F)cc4F)n[nH]c3C2(C)C)[C@@H](C)CN1C1CCC1 (relative stereo)	74.2 nM	
C[C@@H](CO)CN1C[C@H](C)N(C(=O)N2Cc3c(NC(=O)c4ccccn4)n[nH]c3C2(C)C)C[C@H]1C		49.6 nM
C[C@@H]1CN(C(=O)N2Cc3c(NC(=O)c4ccc(Cl)cn4)n[nH]c3C2(C)C)[C@@H](C)CN1CC1CCOCC1	11.9 nM	

SMILES	Ki [1]	Ki
CC(C)N1C[C@H](C)N(C(=O)N2Cc3c(NC(=O)c4ccccn4)n[nH]c3C2(C)C)C[C@H]1C (relative stereo)		69.2 nM
C[C@@H]1CN(C(=O)N2Cc3c(NC(=O)c4ccc(C#N)cc4)n[nH]c3C2(C)C)[C@@H](C)CN1CC1CCOCC1	24.3 nM	
CCCN1C[C@H](C)N(C(=O)N2Cc3c(NC(=O)c4ccccn4)n[nH]c3C2(C)C)C[C@@H]1C		52.5 nM
CC(C)n1cnc(C(=O)Nc2n[nH]c3c2CN(C(=O)N2C[C@@H](C)N(CC4CCOCC4)C[C@@H]2C)C3(C)C)c1	23.8 nM	
C[C@@H]1CN(C(=O)N2Cc3c(NC(=O)c4ccccn4)n[nH]c3C2(C)C)[C@@H](C)CN1C (relative stereo)		28.2 nM
C[C@@H]1CN(C(=O)N2Cc3c(NC(=O)c4coc(C5CC5)n4)n[nH]c3C2(C)C)[C@@H](C)CN1CC1CCOCC1		15.7 nM
CCCN1C[C@H](C)N(C(=O)N2Cc3c(NC(=O)c4ccccn4)n[nH]c3C2(C)C)C[C@H]1C (relative stereo)	39.5 nM	
CN1CCN(C(=O)N2Cc3c(NC(=O)c4ccccc4)n[nH]c3C2(C)C)[C@@H](Cc2ccccc2)C1	189 nM	
COCCCN1C[C@H](C)N(C(=O)N2Cc3c(NC(=O)c4ccccn4)n[nH]c3C2(C)C)C[C@H]1C	19.5 nM	
CCN1C[C@H](C)N(C(=O)N2Cc3c(NC(=O)c4ccc(F)cc4F)n[nH]c3C2(C)C)C[C@H]1C (relative stereo)	83.1 nM	
C[C@@H]1CN(C(=O)N2Cc3c(NC(=O)c4cccc(C#N)c4)n[nH]c3C2(C)C)[C@@H](C)CN1CC1CCOCC1	25.6 nM	
CCCCN1C[C@H](C)N(C(=O)N2Cc3c(NC(=O)c4ccc(F)cc4F)n[nH]c3C2(C)C)C[C@H]1C (relative stereo)	54.9 nM	
COCCCN1C[C@H](C)N(C(=O)N2Cc3c(NC(=O)c4ccc(F)cc4F)n[nH]c3C2(C)C)C[C@H]1C (relative stereo)		131 nM
Cc1ocnc1C(=O)Nc1n[nH]c2c1CN(C(=O)N1C[C@@H](C)N(CC3CCOCC3)C[C@@H]1C)C2(C)C	117 nM	
CCn1ccc(C(=O)Nc2n[nH]c3c2CN(C(=O)N2C[C@@H](C)N(CC4CCOCC4)C[C@@H]2C)C3(C)C)n1	26.9 nM	
C[C@@H]1CN(C(=O)N2Cc3c(NC(=O)c4ccccc4)n[nH]c3C2(C)C)[C@@H](C)CN1CC1CCOCC1	30.1 nM	
CO[C@@H]1CN2C[C@H](C)N(C(=O)N3Cc4c(NC(=O)c5ccccn5)n[nH]c4C3(C)C)C[C@@H]2C1(C)C		177 nM
C[C@@H]1CN(C(=O)N2Cc3c(NC(=O)c4cn(C5CCC5)cn4)n[nH]c3C2(C)C)[C@@H](C)CN1CC1CCOCC1	14.1 nM	
COCCCN1C[C@H](C)N(C(=O)N2Cc3c(NC(=O)c4ccccn4)n[nH]c3C2(C)C)C[C@H]1C (relative stereo)	23.8 nM	
CCN1C[C@H](C)N(C(=O)N2Cc3c(NC(=O)c4ccccn4)n[nH]c3C2(C)C)C[C@@H]1C	149 nM	
Cc1ccccc1C(=O)Nc1n[nH]c2c1CN(C(=O)N1C[C@@H](C)N(CC3CCOCC3)C[C@@H]1C)C2(C)C	67.1 nM	
CCCCN1C[C@H](C)N(C(=O)N2Cc3c(NC(=O)c4ccccn4)n[nH]c3C2(C)C)C[C@H]1C	13.3 nM	
CCCN1C[C@H](C)N(C(=O)N2Cc3c(NC(=O)c4ccc(F)cc4F)n[nH]c3C2(C)C)C[C@H]1C (relative stereo)		87.3 nM

Like-named read-outs stand apart in the source and are kept apart here.
